By UniProt entry, the sequences of proteins in these tests, tags left out. Residues count along the entry.
UniProt P28335, 33-458: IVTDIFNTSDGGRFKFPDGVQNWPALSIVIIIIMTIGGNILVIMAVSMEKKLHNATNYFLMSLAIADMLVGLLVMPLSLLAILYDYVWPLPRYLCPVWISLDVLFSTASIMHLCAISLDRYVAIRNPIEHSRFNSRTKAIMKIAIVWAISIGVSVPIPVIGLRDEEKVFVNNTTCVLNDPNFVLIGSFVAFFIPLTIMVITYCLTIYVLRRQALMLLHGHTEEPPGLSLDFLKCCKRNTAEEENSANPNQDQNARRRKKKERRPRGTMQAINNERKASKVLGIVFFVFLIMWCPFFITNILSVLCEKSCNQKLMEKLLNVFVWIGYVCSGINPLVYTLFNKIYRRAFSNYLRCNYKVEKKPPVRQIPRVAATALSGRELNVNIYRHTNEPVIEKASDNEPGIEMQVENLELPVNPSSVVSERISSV

According to publication PMC3754837 (Neuropharmacology, 2013):

Legend:
[1] = molecular target: h5-HT2C (human 5-HT2C-INI receptor) (Homo sapiens, UniProt P28335); experiment: biochemical; assay type: binding
[2] = molecular target: T1, m5-HT2C (C57Bl/6 mouse 5-HT2C-VNV receptor) (Mus musculus, UniProt P34968, I157V/I161V); experiment: [3H]-mesulergine competition, HEK-293 membranes; assay type: binding
T1 sequence (P34968 33-459 I157V/I161V): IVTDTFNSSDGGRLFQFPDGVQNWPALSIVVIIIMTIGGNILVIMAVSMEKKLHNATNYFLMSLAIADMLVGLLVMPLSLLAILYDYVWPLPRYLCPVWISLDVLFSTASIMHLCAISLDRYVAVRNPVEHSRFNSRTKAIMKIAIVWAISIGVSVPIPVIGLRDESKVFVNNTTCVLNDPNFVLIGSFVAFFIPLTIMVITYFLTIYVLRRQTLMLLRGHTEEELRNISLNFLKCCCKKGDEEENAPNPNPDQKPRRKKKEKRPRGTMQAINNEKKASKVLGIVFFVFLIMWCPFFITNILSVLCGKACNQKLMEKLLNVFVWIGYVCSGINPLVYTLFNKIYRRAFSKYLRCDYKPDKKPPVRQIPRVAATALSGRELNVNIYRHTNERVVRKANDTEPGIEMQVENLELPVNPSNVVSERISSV

Cn1ccc2cc3c(cc21)CCN3C(=O)Nc1cccnc1 [SB-206553]
Ki [1]: 3.1 nM | Ki [2]: 3.2 nM
